Assay results as given in publication PMC6592956, “Characterization of Porcine Hepatic and Intestinal Drug Metabolizing CYP450: Comparison with Human Orthologues from A Quantitative, Activity and Selectivity Perspective” (Scientific Reports, 2019).

How the values were obtained:
[1] = system: T1, CYP3A; experiment: Group mean of log10 Km (Km in µM) for porcine hepatic microsomes from 8 male pigs, probe metabolism at 37 °C, LC-MS/MS.; assay type: biochemical, pig liver microsomes; conditions: n = 8
T1 construct: native enzymes in hepatic or intestinal microsomes; probe reaction midazolam 1-hydroxylation

[2] = system: T1, CYP3A; experiment: Group mean of log10 Km (Km in µM) for porcine hepatic microsomes from 8 female pigs, probe metabolism at 37 °C, LC-MS/MS.; assay type: biochemical, pig liver microsomes; conditions: n = 8
[3] = system: CYP2E; experiment: Incubation with inhibitors: CZ-hydroxylation in porcine hepatic microsomes; assay type: in vitro ADME, conventional pig; conditions: CZ 50 µM; inhibitors SFZ 0.5, α-NFV 0.1 (1 µM), QND 0.1, KET 0.3, DDC 20, 8-MPS 1 µM; mean (SD) of 3
[4] = system: CYP2A; experiment: Incubation with inhibitors: CM-hydroxylation in porcine hepatic microsomes; assay type: in vitro ADME, conventional pig; conditions: CM 1 µM; inhibitors SFZ 0.5, α-NFV 0.1 (1 µM), QND 0.1, KET 0.3, DDC 20, 8-MPS 1 µM; mean (SD) of 3
[5] = system: CYP3A; experiment: Incubation with inhibitors: MDZ-hydroxylation in porcine hepatic microsomes; assay type: in vitro ADME, conventional pig; conditions: MDZ 20 µM; inhibitors SFZ 0.5, α-NFV 0.1 (1 µM), QND 0.1, KET 0.3, DDC 20, 8-MPS 1 µM; mean (SD) of 3
[6] = system: CYP1A; experiment: Incubation with inhibitors: PH-O-deethylation in porcine hepatic microsomes; assay type: in vitro ADME, conventional pig; conditions: PH 20 µM; inhibitors SFZ 0.5, α-NFV 0.1 (1 µM), QND 0.1, KET 0.3, DDC 20, 8-MPS 1 µM; mean (SD) of 3
[7] = target: T2, CYP2D (Sus scrofa, UniProt O46658); experiment: Incubation with inhibitors: DXM-O-demethylation in porcine hepatic microsomes; assay type: in vitro ADME, conventional pig; conditions: DXM 10 µM; inhibitors SFZ 0.5, α-NFV 0.1 (1 µM), QND 0.1, KET 0.3, DDC 20, 8-MPS 1 µM; mean (SD) of 3
T2 construct: from tissue; host or cells: pig liver microsomes
T2 sequence (O46658 1-500): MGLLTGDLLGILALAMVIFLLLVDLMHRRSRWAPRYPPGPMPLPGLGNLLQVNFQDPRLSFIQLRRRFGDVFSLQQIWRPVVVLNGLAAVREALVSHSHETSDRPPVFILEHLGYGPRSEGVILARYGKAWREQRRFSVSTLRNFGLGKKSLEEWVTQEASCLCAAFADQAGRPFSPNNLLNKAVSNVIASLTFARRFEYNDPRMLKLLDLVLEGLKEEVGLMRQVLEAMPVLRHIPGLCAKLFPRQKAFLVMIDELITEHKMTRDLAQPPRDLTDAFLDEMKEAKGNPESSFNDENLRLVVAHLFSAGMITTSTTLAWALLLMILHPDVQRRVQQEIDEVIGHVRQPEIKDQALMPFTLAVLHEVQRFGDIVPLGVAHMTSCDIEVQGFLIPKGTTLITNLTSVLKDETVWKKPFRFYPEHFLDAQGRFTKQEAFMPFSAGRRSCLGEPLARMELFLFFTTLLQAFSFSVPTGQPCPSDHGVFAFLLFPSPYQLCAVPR

[8] = system: CYP2C; conditions: TB 200 µM; inhibitors SFZ 0.5, α-NFV 0.1 (1 µM), QND 0.1, KET 0.3, DDC 20, 8-MPS 1 µM; mean (SD) of 3

Row | Compound | log_Km, male [1] | log_Km, female [2] | Ratio of residual activity (substrate + inhibitor versus substrate only), CYP2E CZ [3] | Ratio of residual activity (substrate + inhibitor versus substrate only), CYP2A CM [4] | Ratio of residual activity (substrate + inhibitor versus substrate only), CYP3A MDZ [5] | Ratio of residual activity (substrate + inhibitor versus substrate only), CYP1A PH [6] | Ratio of residual activity (substrate + inhibitor versus substrate only), CYP2D DXM [7] | Ratio of residual activity (substrate + inhibitor versus substrate only), CYP2C TB [8]
1 | Cc1ncc2n1-c1ccc(Cl)cc1C(c1ccccc1F)=NC2 [MDZ, midazolam] | 1,3136 | 1,3339 | – | – | – | – | – | –
2 | C=C[C@H]1C[N@@]2CC[C@H]1C[C@@H]2[C@@H](O)c1ccnc2ccc(OC)cc12 [Quinidine, quinidine] | – | – | 1.07(0.044) | 1.06 (0.072) | 1.26 (0.075) | 1.15 (0.016) | 0.98 (0.080) | 0.97 (0.052)
